Earlier results, collected in article PMC7178819, “6,7-Dimethoxy-2-phenethyl-1,2,3,4-tetrahydroisoquinoline amides and corresponding ester isosteres as multidrug resistance reversers” (Journal of Enzyme Inhibition and Medicinal Chemistry, 2020).
pEC50: −log10 of the molar value.

Chains of the proteins cited; added tags and fusions are not shown.
UniProt P08183, whole entry: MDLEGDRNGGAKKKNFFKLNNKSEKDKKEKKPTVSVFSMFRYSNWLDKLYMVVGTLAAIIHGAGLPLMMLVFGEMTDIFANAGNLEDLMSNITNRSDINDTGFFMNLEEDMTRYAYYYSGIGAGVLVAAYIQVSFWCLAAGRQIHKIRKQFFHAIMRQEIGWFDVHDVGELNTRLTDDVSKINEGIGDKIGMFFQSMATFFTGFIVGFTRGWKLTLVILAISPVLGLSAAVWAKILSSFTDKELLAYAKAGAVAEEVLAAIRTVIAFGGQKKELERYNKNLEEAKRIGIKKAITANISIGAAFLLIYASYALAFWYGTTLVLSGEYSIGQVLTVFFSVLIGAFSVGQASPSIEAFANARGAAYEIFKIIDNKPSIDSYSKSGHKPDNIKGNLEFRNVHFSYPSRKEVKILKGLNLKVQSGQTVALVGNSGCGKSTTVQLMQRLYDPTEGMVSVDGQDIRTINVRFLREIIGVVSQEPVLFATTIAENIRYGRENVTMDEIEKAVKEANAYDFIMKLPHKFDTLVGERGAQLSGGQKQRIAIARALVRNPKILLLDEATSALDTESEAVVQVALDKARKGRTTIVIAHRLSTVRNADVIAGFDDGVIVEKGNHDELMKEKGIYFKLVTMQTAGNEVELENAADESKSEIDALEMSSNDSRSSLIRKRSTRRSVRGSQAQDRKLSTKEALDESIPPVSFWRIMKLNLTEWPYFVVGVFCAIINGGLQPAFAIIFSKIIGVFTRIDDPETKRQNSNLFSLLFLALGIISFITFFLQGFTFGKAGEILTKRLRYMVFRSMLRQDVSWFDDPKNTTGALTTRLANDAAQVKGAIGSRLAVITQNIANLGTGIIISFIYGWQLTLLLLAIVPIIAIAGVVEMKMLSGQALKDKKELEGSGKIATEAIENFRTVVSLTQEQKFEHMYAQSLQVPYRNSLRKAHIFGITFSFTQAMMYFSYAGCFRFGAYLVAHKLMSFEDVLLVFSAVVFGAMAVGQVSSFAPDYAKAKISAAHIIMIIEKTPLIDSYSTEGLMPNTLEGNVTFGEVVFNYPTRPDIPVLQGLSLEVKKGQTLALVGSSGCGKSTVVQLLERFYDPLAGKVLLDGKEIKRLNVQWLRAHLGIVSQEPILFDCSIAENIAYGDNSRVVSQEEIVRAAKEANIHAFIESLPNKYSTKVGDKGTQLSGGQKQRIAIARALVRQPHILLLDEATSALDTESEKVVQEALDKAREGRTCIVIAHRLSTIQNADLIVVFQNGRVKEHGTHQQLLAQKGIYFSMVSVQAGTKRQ
UniProt Q9UNQ0, whole entry: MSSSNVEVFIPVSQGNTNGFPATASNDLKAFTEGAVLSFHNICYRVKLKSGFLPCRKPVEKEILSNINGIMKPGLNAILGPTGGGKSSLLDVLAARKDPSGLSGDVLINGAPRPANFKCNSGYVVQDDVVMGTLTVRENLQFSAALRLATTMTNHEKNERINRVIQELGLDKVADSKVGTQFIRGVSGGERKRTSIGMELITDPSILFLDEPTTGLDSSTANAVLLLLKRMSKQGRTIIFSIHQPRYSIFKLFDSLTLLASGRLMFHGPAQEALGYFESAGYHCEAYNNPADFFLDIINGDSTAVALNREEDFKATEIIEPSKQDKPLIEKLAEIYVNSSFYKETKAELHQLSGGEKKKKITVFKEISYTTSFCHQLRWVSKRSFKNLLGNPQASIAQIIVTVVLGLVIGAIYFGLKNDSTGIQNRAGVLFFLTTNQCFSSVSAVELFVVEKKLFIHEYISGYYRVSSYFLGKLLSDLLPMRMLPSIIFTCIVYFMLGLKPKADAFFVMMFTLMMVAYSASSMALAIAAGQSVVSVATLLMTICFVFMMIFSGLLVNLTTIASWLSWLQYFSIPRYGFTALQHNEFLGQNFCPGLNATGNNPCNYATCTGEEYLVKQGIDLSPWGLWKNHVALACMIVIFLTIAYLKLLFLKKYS

What was measured:
[1] = human plasma; cited from earlier work
Caco-2 cell monolayer = settings: Caco-2 monolayer, BA/AB ratio; cited from earlier work
P-gp [2] = target: T1, P-gp (Homo sapiens, UniProt P08183); settings: read-out: (EC50) P-gp; Calcein-AM, MDCK-MDR1 cells; cited from earlier work
P-gp [3] = target: T1, P-gp; settings: MDCK-MDR1 cells; Yes/No; cited from earlier work
BCRP = BCRP (Homo sapiens, UniProt Q9UNQ0); settings: read-out: (EC50) BCRP; Hoechst 33342, MDCK-BCRP cells; NA: not active; cited from earlier work

Row | Compound | t1/2 [1] | Papp (BA/AB) (Caco-2 cell monolayer) | pEC50 (P-gp [2]) | ATP cell depletion (P-gp [3]) | pEC50 (BCRP)
1 | COc1cc2c(cc1OC)CN(CCc1ccc(NC(=O)c3cc(OC)c(OC)c(OC)c3)cc1)CC2 | ≥4 h | 5.1 | 5.98 | No | 
2 | COc1cc2c(cc1OC)CN(CCc1ccc(OC(=O)c3cc(OC)c(OC)c(OC)c3)cc1)CC2 | ≥4 h | 5.5 | 6.03 | No | 4.77
